From US10214765B2, “Cell-permeable probes for identification and imaging of sialidases” (Academina Sinica, priority 2012, dated 2019) come the findings set out here.

By UniProt entry, the sequences of proteins in these tests, tags left out.
UniProt P03470, whole entry, looked up: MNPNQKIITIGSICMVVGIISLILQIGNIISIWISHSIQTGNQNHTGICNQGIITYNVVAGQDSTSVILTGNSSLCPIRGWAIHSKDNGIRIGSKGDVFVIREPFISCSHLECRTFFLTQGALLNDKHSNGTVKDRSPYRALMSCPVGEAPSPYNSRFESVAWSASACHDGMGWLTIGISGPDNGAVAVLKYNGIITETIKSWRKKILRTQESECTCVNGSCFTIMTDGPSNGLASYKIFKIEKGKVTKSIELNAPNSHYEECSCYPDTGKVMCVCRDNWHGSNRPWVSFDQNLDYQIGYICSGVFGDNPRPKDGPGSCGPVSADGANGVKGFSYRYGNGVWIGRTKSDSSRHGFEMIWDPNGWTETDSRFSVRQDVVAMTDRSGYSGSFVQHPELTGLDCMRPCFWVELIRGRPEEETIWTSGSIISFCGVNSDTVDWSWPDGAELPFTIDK

In this experiment the target is influenza neuraminidase (A/WSN/1933/H1N1) (Influenza A virus, UniProt P03470). The experiment can be described thus: DFSA adduct formation on influenza virus, SDS-PAGE, click detection. The experiment is classed as binding, influenza virus A/WSN/1933/H1N1. Particulars: neuraminidase at the surface of influenza virus; FIG. 2B.

Take `C#CCCC(=O)NC1C(O)C(F)C(F)(C(=O)O)OC1[C@H](O)[C@H](O)CO` (stereo partly drawn) [DFSA-5-yne, 5-(Pent-4-ynamido)-2,3,5-trideoxy-3-fluoro-D-erythro-β-L-manno-non-2-ulopyranosylonic fluoride]: the fluorosialosyl-enzyme adduct formation result is “formed a DFSA adduct”.
